# Source: PubChem BioAssay AID709 (SRMLSC, 2007)
# Only a part is listed here, and it is no random draw. Activity calls are given as the source filed them.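 The calls were made as follows: active = at 10 µM, mean starting fluorescence two-fold or more over control wells; inactive = the rest.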
# Experiment: intrinsic fluorescence of library compounds, ex339/em460 – biochemical, MLSMR library, data from DPM-DC assay, artefact control, profiling panel (AID 709);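 also: signal is the first read of a kinetic run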
# Settings: compound autofluorescence, ex339/em460 nm, NADH buffer; at 10 µM; hits give high values; 1 = no-compound wells, NADH background
row,SMILES,fluorescence fold increase
1,COc1ccccc1OP(C)(=O)Nc1ccc(C)c(C)c1 (stereo not drawn),inactive: 1.06
2,Cc1nc2ccc3ccccc3c2o1.O=[N+]([O-])c1cc([N+](=O)[O-])c(O)c([N+](=O)[O-])c1,inactive: 1.14
3,CP(=O)(Nc1ccccn1)Oc1ccccc1 (stereo not drawn),inactive: 1.06
4,CCN(CC)CC(O)COC(=O)C(O)(c1ccccc1)C1CCCCC1 (stereo not drawn),inactive: 1.04
5,CP(=O)(Oc1ccccc1)N1CCOC1=O (stereo not drawn),inactive: 1.08
6,COc1ccccc1OP(C)(=O)Nc1c(C)n(C)n(-c2ccccc2)c1=O (stereo not drawn),inactive: 1.09
7,CN(C)CCOC(=O)C(O)(c1ccccc1)C1CCCCC1 (stereo not drawn),inactive: 1.03
8,CCOP(C)(=S)SCC(=O)NC(C)(CC)C(=O)O (stereo not drawn),inactive: 1.04
9,CP(=O)(Nc1ccc2c(c1)OCCO2)Oc1ccccc1 (stereo not drawn),inactive: 1.01
10,Cc1ccccc1NP(C)(=O)Nc1ccccc1C,inactive: 1.12
11,CP(=O)(Nc1ccccc1F)Oc1ccccc1 (stereo not drawn),inactive: 1.11
12,Cc1ccc(C)c(NP(C)(=O)Oc2ccccc2)c1 (stereo not drawn),inactive: 0.97
13,Cc1nc2ccc3ccccc3c2s1.O=[N+]([O-])c1cc([N+](=O)[O-])c(O)c([N+](=O)[O-])c1,inactive: 0.99
14,CP(=S)(Nn1cnnc1)Oc1ccccc1 (stereo not drawn),inactive: 1.07
15,CP(=O)(NC(=O)Nc1ccccc1)Oc1ccccc1 (stereo not drawn),inactive: 1.1
16,CCOP(C)(=S)SCC(=O)NC(C)C(=O)O (stereo not drawn),inactive: 1.06
17,COc1ccccc1OP(C)(=O)Nc1ccc(C)cc1 (stereo not drawn),inactive: 1.08
18,Cc1ccc(NP(C)(=O)Oc2ccccc2)c(C)c1 (stereo not drawn),inactive: 1.11
